Results as given in BindingDB's records for doi:10.1021/acs.jmedchem.5b00801 (Duquesne University, 2015).

How the values were obtained:
[1] = Binding affinity to human FRalpha expressed in Chinese hamster RT16 cells assessed as cell growth inhibition after 96 hrs by CellTiter-Blue assay
[2] = Binding affinity to human FRbeta expressed in Chinese hamster D4 cells assessed as cell growth inhibition after 96 hrs by CellTiter-Blue assay in presence of 200 nM folic acid
[3] = Binding affinity to human FRbeta expressed in Chinese hamster D4 cells assessed as cell growth inhibition after 96 hrs by CellTiter-Blue assay

Row | pIC50 [1] | pIC50 [2] | pIC50 [3] | Compound
1 | 6.81 | < 6.00 | 7.74 | Nc1nc(N)c2c(CCCc3csc(C(=O)N[C@@H](CCC(=O)O)C(=O)O)c3)coc2n1
2 | 6.83 | – | – | Nc1nc(N)c2c(CCCc3cc(C(=O)N[C@@H](CCC(=O)O)C(=O)O)cs3)coc2n1

pIC50: −log10 of the molar value.
